# In patent US7993660B2, “Method of increasing immunological effect” (IRx Therapeutics, Inc., priority 2007, dated 2011):
# Legend:
# [1] = system: activated peripheral blood CD4+ T-lymphocytes; assay: Caspase activation (FITC-VAD-FMK staining, flow cytometry) in activated primary CD4+ T cells; assay type: cell-based, human; details: 24 hours pre-incubation (IRX-2 1:3, IL-2 100 IU/mL, IL-7/IL-15 10 ng/mL)
# Text: (§1) The head and neck squamous cell carcinoma (H&NSCC) cell line […] was established in Applicants' laboratory and maintained as previously described. It was retrovirally transfected with the human FasL gene obtained from Dr. S. Nagata (Osaka Biosciences Institute, Osaka, Japan) as previously reported. Supernatants of transfected PCI-13-cells (PCI-13-FasL), which contained both sFasL and the 42 kDa membranous form of FasL, were used as a source of tumor-derived microvesicles (MV). Jurkat cells were obtained from American Tissue Culture Collection (ATCC, Manassas, Va.) and were transfected with CD8. […]
# (§2) Four color flow cytometry was performed using a […] (Beckman Coulter) equipped with Expo32 software (Beckman Coulter). […] Data was analyzed using Coulter EXPO 32vl.2 analysis software.
# (§3) Total cellular Caspase activity was tested by intracellular staining of activated caspases using a pan caspase inhibitor, CASPACE FITC-VAD-FMK In Situ Marker (Promega, Madison, Wis.). […] Then cells were stained for cell surface receptors, fixed with 1% paraformaldehyde and analyzed by flow cytometry. The specific activation of caspase-3 and caspase-7 was measured using the VYBRANT FAM caspase-3 and -7 Assay Kit from Invitrogen (Carlsbad, Calif.) according to the manufacturers' instructions. […]
# H&NSCC tumor = details: published studies (De Stefani, Timar); cited from earlier work
# [2] = system: activated peripheral blood CD8+ T-lymphocytes; assay: Caspase activation (FITC-VAD-FMK staining, flow cytometry) in activated primary CD8+ T cells; assay type: cell-based, human; details: 24 hours pre-incubation (IRX-2 1:3, IL-2 100 IU/mL, IL-7/IL-15 10 ng/mL)
# Text: as §1, §2, §3
# [3] = Table 2A MV-induced apoptosis, then 10 μg MV 24 hours
# [4] = Table 2B CH-11 Ab-induced apoptosis, then 400 ng/mL CH-11 Ab 24 hours
substance,measurement,setting,value
"IL-2: human recombinant cytokine, purchased from Peprotech",mean % of FITC-VAD-FMK+ cells ± SD,[1]; [3],22.2 ± 2.7%
same,mean % of FITC-VAD-FMK+ cells ± SD,[1]; [4],31.7 ± 3.0%
same,"histopathology findings, treated tumor vs control tumor",H&NSCC tumor,"↑ LI, ↑ necrosis, ↑ fibrosis"
same,mean % of FITC-VAD-FMK+ cells ± SD,[2]; [3],21.9 ± 2.7%
same,mean % of FITC-VAD-FMK+ cells ± SD,[2]; [4],44.2 ± 6.9%
